“And” between values parts separate entries of the source, which are not always exact repeats. Identical values can stand only once.

Amino acid sequences for entries named in this document (tags omitted). A change or cut given only in a name is not applied to a line headed by its entry. Residues count along the entry.
UniProt Q99436, 44-277 limits assumed: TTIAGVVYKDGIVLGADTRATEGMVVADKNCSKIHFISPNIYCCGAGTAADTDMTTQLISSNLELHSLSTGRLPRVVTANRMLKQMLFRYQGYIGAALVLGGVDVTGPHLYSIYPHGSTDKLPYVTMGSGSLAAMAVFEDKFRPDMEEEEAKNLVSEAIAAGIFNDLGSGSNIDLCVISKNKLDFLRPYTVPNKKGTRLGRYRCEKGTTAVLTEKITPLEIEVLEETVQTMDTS

In data set [1] the target is proteasome subunit β5 (Homo sapiens, UniProt P28074). The experiment in a line: In situ β5 proteasome activity assay (Suc-LLVY-AMC) in RPMI 8226 cells. The format is cell-based. The text has this:
A preliminary series of analogues, including the natural product glidobactin A (2), were synthesized by largely the same route (Scheme 2B, Figure 2).[36] Desoxycepafungin (38) was synthesized from Boc-Lys(Boc)-OH by peptide couplings/macrocyclization to assess the role of the macrocycle hydroxylation in 1 toward proteasome inhibition. The saturated cepafungin analogue 39 was designed to address the possible role of rigidity in the tail fragment induced by the diene seen in many natural cepafungins and glidobactins. An analogue bearing unsaturation at its macrocyclic lysine was envisioned to provide a head-to-head comparison between the cepafungin and syringolin macrocyclic core. […] Proteasome subunit β5 IC50 values were determined in situ in RPMI 8226 cells. […]
Cellular assays were performed on human multiple myeloma RPMI 8226 cells (Figure 4). […] Following incubation of the compounds in cell culture for 6 h, cells were lysed, and fluorogenic subunit-specific peptide substrates Suc-LLVY-AMC (β5) or Ac-RLR-AMC (β2) were incubated with the lysates; fluorescence readings provided relative proteasome activity levels in comparison with DMSO (Figure 4A). […]
(§1) Mammalian cells were maintained in RPMI-1640 media. […] Cells were lysed by needle sonication to obtain cell lysates and protein concentration was determined using the […]

In data set [2] the target is proteasome subunit β2 (Homo sapiens, UniProt Q99436). The experiment in a line: In situ β2 proteasome activity assay (Ac-RLR-AMC) in RPMI 8226 cells. The format is cell-based. As to the method:
Cellular assays were performed on human multiple myeloma RPMI 8226 cells (Figure 4). First, relative inhibition of proteasome subunits β5 and β2 for all analogues and the natural product was measured at 30 nM compound concentration. Following incubation of the compounds in cell culture for 6 h, cells were lysed, and fluorogenic subunit-specific peptide substrates Suc-LLVY-AMC (β5) or Ac-RLR-AMC (β2) were incubated with the lysates; fluorescence readings provided relative proteasome activity levels in comparison with DMSO (Figure 4A). Next, cytotoxicity screening was performed at 30 and 100 nM concentrations for sufficient coverage of dynamic range (Figure 4B). […] Therefore, the improved cytotoxicity of phenyl cepafungin 50 likely results from a more pronounced loss of β5 function in RPMI 8226 cells. This drastic increase in proteasome inhibition may be due to π-stacking of the lipid tail phenyl ring with the β6 subunit residues Tyr106 and/or Tyr5. […]
as §1
fluorescence was read at A360ex/A460em. […]
in DMSO) or DMSO and cultured for 48 hours. Toxicity was determined using the WST-1 assay (Roche) according to the protocol of the manufacturer. […]

For data set [3], the system named is U266.
Data set [4] has as its system H929.
Data set [5] concerns JeKo-1.
Data set [6] relates to HBL2.
For data set [7], the system named is Mino.
The subject of data set [8] is RPMI 8226 cells. The experiment in a line: Global proteomics analysis via LC-MS/MS of RPMI 8226 cells treated with BTZ or 50 (Table S5). The data set is classed as cell-based, human.
The subject of data set [9] is RPMI 8226 cells.

As usually defined, the IC50 is the concentration at which inhibition is half-maximal. One may read the EC50 as the concentration that produces a half-maximal response. A lower EC50 goes with a more potent agent. Turning to `C[C@H]1/C=C/C(=O)NCC[C@H](O)C[C@H](NC(=O)[C@@H](NC(=O)/C=C/C=C/CCCCCc2ccccc2)[C@@H](C)O)C(=O)N1`, in [1], the “fold lower β5 IC50 than 1 (greater β5 inhibitory activity)” value turned out to be 7 fold. Besides, the half-inhibitory concentration (IC50) in [1] (read-out: Proteasome β5 activity IC50, 6 h, Suc-LLVY-AMC, n = 3, Figure 4D) is 4 nM; in data set [2] (read-out: Proteasome β2 activity IC50, 6 h, Ac-RLR-AMC, n = 3, Figure 4D), 36 nM. The “β2 subunit IC50 compared to 1” value in data set [2] was “roughly similar IC50”. The EC50 in [3] is 18.9 nM and 20 nM; in data set [4], 0.8 nM; in [5] it was 9.8 nM; in [6], 3.4 nM; in data set [7] it was 5.6 nM; in [9], 3.1 nM and 3 nM. Also, in [8] (17 common proteins), the “overlap of upregulated proteins commonly affected by BTZ and 50” value is 89%. The “number of proteins with statistically significant increase in expression” value in data set [8] (RPMI 8226, 14 h, 2.5 nM BTZ or 3 nM 50 vs DMSO, out of 4080 quantified, FDR 5%, S0 0.1) is 19 proteins.
